Values quoted from earlier work, collected in patent US20260355144A1, “METAP2 INHIBITORS FOR THE TREATMENT OF PULMONARY FIBROSIS” (SynDevRx , Inc., priority 2022, published 2026).

Conditions: HER2-positive metastatic breast cancer; certain patients; cited from earlier work

**Q.** With “Enhertu: antibody-drug conjugate used to treat HER2-positive metastatic breast cancer” as the substance, how does the “induction of ILD” value read?
**A.** shown to induce ILD, including pneumonitis
